Reference: ChEMBL document CHEMBL1121754 (J Med Chem, 1981)

Sequences of proteins named here, by UniProt entry; tags and fusion partners are left off.
UniProt P30994, whole entry: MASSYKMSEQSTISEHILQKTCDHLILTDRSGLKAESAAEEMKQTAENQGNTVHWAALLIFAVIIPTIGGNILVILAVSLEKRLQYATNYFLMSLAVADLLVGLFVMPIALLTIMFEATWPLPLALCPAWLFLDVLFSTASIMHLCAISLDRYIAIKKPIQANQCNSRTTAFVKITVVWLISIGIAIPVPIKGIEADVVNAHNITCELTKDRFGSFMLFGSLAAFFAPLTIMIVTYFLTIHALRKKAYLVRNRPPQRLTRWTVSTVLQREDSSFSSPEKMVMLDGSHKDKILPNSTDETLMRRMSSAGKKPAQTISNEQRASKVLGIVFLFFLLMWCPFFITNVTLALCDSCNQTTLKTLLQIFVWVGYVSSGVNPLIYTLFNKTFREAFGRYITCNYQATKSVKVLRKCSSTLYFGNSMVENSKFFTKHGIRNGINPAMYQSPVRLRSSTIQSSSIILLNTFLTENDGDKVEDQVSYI

What was measured:
[1] = Equilibrium constant for DNB complex formation; set-up: unit not given here
[2] = molecular target: 5-hydroxytryptamine receptor 2B (Rattus norvegicus, UniProt P30994); assay: Affinity against 5-hydroxytryptamine 2B receptor in the isolated rat stomach fundus; assay type: tissue-based; settings: read-out: pA2 (converted)

Compound | KDNB [1] | Kb [2] [nM]
COc1ccccc1CC(C)N (stereo not given) | 0.83 | 2880
COc1ccc(OC)c(CC(C)N)c1 (stereo not given) | 1.39 | 148
COc1cccc(CC(C)N)c1OC (stereo not given) |  | 2880
